By UniProt entry, the sequences of proteins in these tests, tags left out. Residues count along the entry.
UniProt P10636, 1-412 isoform P10636-7: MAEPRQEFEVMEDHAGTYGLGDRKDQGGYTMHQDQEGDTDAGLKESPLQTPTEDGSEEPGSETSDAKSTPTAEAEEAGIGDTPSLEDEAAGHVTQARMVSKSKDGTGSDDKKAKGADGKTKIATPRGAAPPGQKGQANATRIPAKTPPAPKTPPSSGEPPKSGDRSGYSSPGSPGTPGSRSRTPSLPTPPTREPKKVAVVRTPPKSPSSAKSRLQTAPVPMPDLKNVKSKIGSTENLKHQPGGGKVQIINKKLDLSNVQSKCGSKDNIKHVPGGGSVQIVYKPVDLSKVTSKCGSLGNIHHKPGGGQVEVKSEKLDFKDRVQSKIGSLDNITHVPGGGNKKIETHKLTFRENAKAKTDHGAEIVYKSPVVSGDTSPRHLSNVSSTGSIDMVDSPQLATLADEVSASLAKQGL

In patent publication US20260285847A1, “SYMMETRIC AMINOINDOLE-LINKED TRIAZINE FOR A DUAL EFFECT ON ALPHA-SYNUCLEIN AND TAU ISOFORM 2N4R FIBRILLIZATION” (Purdue Research Foundation, priority 2023, published 2026):

Target: hyperphosphorylated tau (p-tau) isoform 1N4R (Homo sapiens, UniProt P10636)
Details: p-tau 6 μM

Row | Compound | p-tau isoform 1N4R fibril formation (fluorescence intensity, in words) (compound 48 μM) | p-tau isoform 1N4R fibril formation (fluorescence intensity, in words) (compound 98 μM)
1 | c1cc(Oc2ncnc(Oc3cccc4[nH]ccc34)n2)c2cc[nH]c2c1 [Compound 7, 4-{[4-(1H-indol-4-yloxy)-1,3,5-triazin-2-yl]oxy}-1H-indole] | did not reduce the fluorescence intensity at the same level than apomorphine | did not reduce the fluorescence intensity at the same level than apomorphine
2 | c1cc(Nc2ncnc(Nc3cccc4[nH]ccc34)n2)c2cc[nH]c2c1 [Compound 10, N2,N4-bis(1H-indol-4-yl)-1,3,5-triazine-2,4-diamine] | did not reduce the fluorescence intensity at the same level than apomorphine | –

Where two headings read alike, the source gives them in different places.
